According to US6482609B1, “Isolated human EDG-4 receptor and polynucletide encoding said receptor” (priority 1997, dated 2002):

Assays:
[1] = system: human EDG-3; assay: NF-κB luciferase reporter in 293-EBNA cells, EDG-3; type: cell-based; conditions: EDG-3 clone pC3-E3HP2; 3 μM; 6 hours
Method: 2) 3 μg NFκB-tk-p4Luc reporter DNA and 3 μg pC3-hedg1, pC3-hedg3, pC3-redg4, pC3-hedg5 or pcDNA3 DNA was diluted in 240 μl OPTI-MEM (Gibco; Cat. 31985-062)
Transient Transfection Protocol for 293-EBNA (Assay 3):
The protocol described in Example 11 for Assay 1 was followed except for the following changes:
2) SRE Cotransfection: 0.5 μg of 2XSREtk-p4Luc-zeo reporter DNA and 3.5 μg pcDNA3, EDG-1, EDG-3 (pC3-hE3HP2, different from the clone used in Assay 2 of Example 11) or the newly cloned human EDG-4 (pC3-hedg4#36); NF-κB Cotransfection: 2 μg 6XNFκBtk-p4Luc-zeo reporter DNA and 2.0 μg pcDNA3, EDG-1, EDG-3 (pC3-hE3HP2), or EDG-4 (pC3-hedg4#36). Expression plasmid and reporter plasmid DNA samples were combined and diluted in 750 μl of DMEM/F12 (serum free media) and 20 μl Plus Reagent (Lipofectamine Plus Kit, Life Technologies Cat. 10964-013), and incubated at room temperature for 15 min.
3) 30 μl Lipofectamine Reagent (Lipofectamine Plus Kit) was diluted in 750 μl DMEM/F12. The diluted Lipofectamine was then combined with the DNA/Plus mixture and incubated at room temperature for 15 min.
6) The transfection medium was replaced with serum-free DMEM/F12 for cells transfected with 2XSREtk-p4Luc-zeo reporter DNA and with DMEM/F12 plus 10% FBS for cells tansfected with 6XNFκBtk-p4Luc-zeo reporter DNA. […]

[2] = system: human EDG-4 fusion protein with Jellyfish Green Fluorescent Protein (GFP); conditions: 3 clones of EDG-4/GFP; 1 or 5 μM S1P

CCCCCCCCCCCCC/C=C/[C@@H](O)[C@@H](N)COP(=O)(O)O [S1P, sphingosine-1-phosphate]
Induction of the NF-κB reporter gene compared to untreated controls [1]: about 8 fold
SRE response of EDG-4/GFP clones compared with EDG-4 parent [2]: did not differ significantly from the EDG-4 parent
